Only a part of the results on these compounds is given; other tests are left out.
Experiments:
[1] = test system: human polymorphonucleates (PMN); test: Vitality of human polymorphonucleates (PMN), Trypan
human chondrocytes = test: Cytotoxic effect on human chondrocytes, MTT method; conditions: 24 hours, 4 separate experiments
superoxide anion = test: Superoxide anion inhibition, PMA-stimulated PMNs, cytochrome-C reduction
human PMNs = test: Inhibition of the chemiluminescence produced by human PMNs stimulated with opsonized zymosan
[2] = Isotony / osmolality of solutions and formulations; conditions: for Isotony: 500 mg polymetaphosphate in 100 ml of PBS buffer (Table 1.A); for Osmolality (mOsm): pH brought back to 7.5
[3] = Table 7.C (Tests with SMP; head prints SEMP), 0.5 mg/ml in PBS
[4] = Table 7.C (Tests with SMP; head prints SEMP), 1 mg/ml in PBS
[5] = Table 7.C (Tests with SMP; head prints SEMP), 2 mg/ml in PBS
[6] = Table 7.C (Tests with SMP; head prints SEMP), 4 mg/ml in PBS
[7] = polymetaphosphate alone 0.5 mg/ml in PBS
[8] = polymetaphosphate alone 1 mg/ml in PBS
[9] = polymetaphosphate alone 2 mg/ml in PBS
[10] = polymetaphosphate alone 4 mg/ml in PBS
[11] = polymetaphosphate alone […] in PBS

With Cyclic sodium hexametaphosphate the “% Vitality PMN” value ([1]; Table 7.A, SEMP 0.5 mg/ml in PBS, 37° C. for 5 minutes) was 100%, the “% Vitality PMN” value ([1]; Table 7.A, SEMP 1 mg/ml in PBS, 37° C. for 5 minutes) was 97% and the “% Vitality PMN” value ([1]; Table 7.A, SEMP 2 mg/ml in PBS, 37° C. for 5 minutes) was 96%. The “% Vitality PMN” value ([1]; Table 7.A, SEMP 4 mg/ml in PBS, 37° C. for 5 minutes) was 92%, the “% Vitality PMN” value [1, 3] was 99% and the “% Vitality PMN” value [1, 4] was 97%. For the same substance, the “% Vitality PMN” value [1, 5] was 98%, the “% Vitality PMN” value [1, 6] was 93% and the “% of metabolically active cells (mean ± SD)” value (human chondrocytes; 1 mg/ml) was 86.7 ± 4.6%. The “% of metabolically active cells (mean ± SD)” value (human chondrocytes; 2 mg/ml) was 85.2 ± 6.8%, the “% of metabolically active cells (mean ± SD)” value (human chondrocytes; 5 mg/ml) was 68.0 ± 5.2% and the “% of metabolically active cells (mean ± SD)” value (human chondrocytes; 15 mg/ml) was 48.3 ± 8.4%. The “inhibition of the production of superoxide anion (in words)” value (superoxide anion) was “inhibitory power on the production of superoxide anion, in direct proportion to its concentration”, the “Test 1 % inhibition (superoxide anion)” value (superoxide anion; PBS + SEMP 0.5 mg/ml) was 12.5% and the “Test 2 % inhibition (superoxide anion)” value (superoxide anion; PBS + SEMP 0.5 mg/ml) was 14.0%. The “Test 1 % inhibition (superoxide anion)” value (superoxide anion; PBS + SEMP 1 mg/ml) was 30.8%, the “Test 2 % inhibition (superoxide anion)” value (superoxide anion; PBS + SEMP 1 mg/ml) was 38.8% and the “Test 1 % inhibition (superoxide anion)” value (superoxide anion; PBS + SEMP 2 mg/ml) was 43.7%. For the same substance, the “Test 2 % inhibition (superoxide anion)” value (superoxide anion; PBS + SEMP 2 mg/ml) was 47.4%, the “Test 1 % inhibition (superoxide anion)” value (superoxide anion; PBS + SEMP 5 mg/ml) was 53.1% and the “Test 2 % inhibition (superoxide anion)” value (superoxide anion; PBS + SEMP 5 mg/ml) was 56.2%. For the same substance, the “inhibitory effect on the chemiluminescence produced by human PMNs (in words)” value (human PMNs) was “powerful inhibiting effect”, the “Test 1 % inhibition (chemiluminescence)” value (human PMNs; [7]) was 32.4% and the “Test 2 % inhibition (chemiluminescence)” value (human PMNs; [7]) was 17.5%. The “Test 3 % inhibition (chemiluminescence)” value (human PMNs; [7]) was 33.4%, the “Test 1 % inhibition (chemiluminescence)” value (human PMNs; [8]) was 64.8% and the “Test 2 % inhibition (chemiluminescence)” value (human PMNs; [8]) was 50.0%. For the same substance, the “Test 3 % inhibition (chemiluminescence)” value (human PMNs; [8]) was 66.9%, the “Test 1 % inhibition (chemiluminescence)” value (human PMNs; [9]) was 74.6% and the “Test 2 % inhibition (chemiluminescence)” value (human PMNs; [9]) was 72.5%. For the same substance, the “Test 3 % inhibition (chemiluminescence)” value (human PMNs; [9]) was 70.0%, the “Test 1 % inhibition (chemiluminescence)” value (human PMNs; [10]) was 81.0% and the “Test 2 % inhibition (chemiluminescence)” value (human PMNs; [10]) was 80.0%. The “Test 3 % inhibition (chemiluminescence)” value (human PMNs; [10]) was 74.3%, the “Test 1 % inhibition (chemiluminescence)” value (human PMNs; [11]) was 97.8% and the “Test 2 % inhibition (chemiluminescence)” value (human PMNs; [11]) was 84.0%. For the same substance, the “Test 3 % inhibition (chemiluminescence)” value (human PMNs; [11]) was 76.9%, the Isotony [2] was “Isotony = 285 mOsm” and the “Osmolality (mOsm)” value ([2]; Table 7.A, SEMP 0.5 mg/ml in PBS) was 273 mOsm. The “Osmolality (mOsm)” value ([2]; Table 7.A, SEMP 1 mg/ml in PBS) was 274 mOsm, the “Osmolality (mOsm)” value ([2]; Table 7.A, SEMP 2 mg/ml in PBS) was 274 mOsm and the “Osmolality (mOsm)” value ([2]; Table 7.A, SEMP 4 mg/ml in PBS) was 280 mOsm. For the same substance, the “Osmolality (mOsm)” value [2, 3] was 268 mOsm, the “Osmolality (mOsm)” value [2, 4] was 269 mOsm and the “Osmolality (mOsm)” value [2, 5] was 271 mOsm. For the same substance, the “Osmolality (mOsm)” value [2, 6] was 282 mOsm.
For Polymeric sodium metaphosphate, the “% of metabolically active cells (mean ± SD)” value (human chondrocytes; 1 mg/ml) was 95.0 ± 3.2%, the “% of metabolically active cells (mean ± SD)” value (human chondrocytes; 2 mg/ml) was 92.8 ± 4.0% and the “% of metabolically active cells (mean ± SD)” value (human chondrocytes; 5 mg/ml) was 63.2 ± 5.1%. For the same substance, the “% of metabolically active cells (mean ± SD)” value (human chondrocytes; 15 mg/ml) was 50.0 ± 7.6%, the “Test 1 % inhibition (chemiluminescence)” value (human PMNs; [7]) was 42.5% and the “Test 2 % inhibition (chemiluminescence)” value (human PMNs; [7]) was 52.8%. The “Test 3 % inhibition (chemiluminescence)” value (human PMNs; [7]) was 34%, the “Test 1 % inhibition (chemiluminescence)” value (human PMNs; [8]) was 69.1% and the “Test 2 % inhibition (chemiluminescence)” value (human PMNs; [8]) was 70%. The “Test 3 % inhibition (chemiluminescence)” value (human PMNs; [8]) was 70%, the “Test 1 % inhibition (chemiluminescence)” value (human PMNs; [9]) was 77.6% and the “Test 2 % inhibition (chemiluminescence)” value (human PMNs; [9]) was 70%. The “Test 3 % inhibition (chemiluminescence)” value (human PMNs; [9]) was 73.6%, the “Test 1 % inhibition (chemiluminescence)” value (human PMNs; [10]) was 79.8% and the “Test 2 % inhibition (chemiluminescence)” value (human PMNs; [10]) was 76%. The “Test 3 % inhibition (chemiluminescence)” value (human PMNs; [10]) was 79.2%, the “Test 1 % inhibition (chemiluminescence)” value (human PMNs; [11]) was 82% and the “Test 2 % inhibition (chemiluminescence)” value (human PMNs; [11]) was 75%. The “Test 3 % inhibition (chemiluminescence)” value (human PMNs; [11]) was 81.5% and the Isotony [2] was “Isotony = 284 mOsm”.
With Linear sodium tripolyphosphate the Isotony [2] was “Isotony = 300 mOsm”.
With Cyclic sodium trimetaphosphate the Isotony [2] was “Isotony = 314 mOsm”.

— patent publication US20100173010A1
